Tested on: human T cell
Experiment: CD73 cellular assay (T cell stimulation assay: CellTiter-Glo proliferation and IFN-γ ELISA)
Assay type: cell-based
Conditions: human T cells, anti-CD3/CD28, AMP + EHNA, 72 hours; read-out: EC50 IFN-γ (ELISA, indicator for T-cell activity)
Procedure: Day 2, human T cell seeding: (a) washing the coated plate (from Day 1) with sterilized PBS buffer (2×100 uL); (b) re-suspending T cells and adjusting cell density to 0.5×10^6 cells/mL with growth media (X-VIVO 15+1% Pen/strep+1% glutamine), and seeding 100 μL/well (50,000 cells/well) in 96-well plates; (c) diluting CD28 antibody for 8× working concentration (8 μg/mL) with growth media, giving 1 μg/mL of the final concentration, followed by addition of CD28 antibody (25 μL) to cell plate; incubating the plates under 5% CO2 at 37° C. for 60 min; (d) adding compound (25 μL, 8×dilution with growth media) to cell plate, and incubating the plates under 5% CO2 at 37° C. for 60 min; (e) adding AMP (25 μL) and EHNA (25 μL, 8×dilution with growth media) to cell plate; (f) incubating the plates under 5% CO2 at 37° C. for 72 hours. […]

C[C@H](Nc1cc(Cl)nc2c1cnn2[C@@H]1O[C@H](COP(=O)(O)CP(=O)(O)O)[C@@H](O)[C@H]1O)c1ccccc1F [Compound a, AB680, reference compound]
EC50: 34.9 nM

— patent US20240024346A1, “CD73 INHIBITORS AND PHARMACEUTICAL USES THEREOF” (RISEN (SUZHOU) PHARMA TECH CO., LTD., priority 2020, published 2024)
